According to patent US11498853B2, “Water with switchable ionic strength” (QUEEN'S UNIVERSITY AT KINGSTON, priority 2010, dated 2022):
Values joined by “and” are separate entries in the source; they are usually repeats but may differ in a detail not shown here. Identical values can stand only once.

Key:
[1] = Separation of THF from aqueous phase and retention of additive on switching with CO2, by 1H NMR; assay type: physicochemical
Method: (§1) The volumes of each phase were recorded.
The graduated cylinders were capped with rubber septa. […] A second narrow gauge steel tube was provided to vent the gaseous phase.
as §1

[2] = Reversible protonation of amine additives in H2O monitored by conductivity; assay type: physicochemical
Method: 1:1 w/w H2O and THEED was used because a 1:1 v/v solution was too viscous to pour accurately. A trigger gas chosen from CO2, air or nitrogen was bubbled at identical flow rates through the solution via a narrow gauge steel tube and the conductivity of the solution was measured periodically using a Jenway 470 Conductivity Meter (Bibby Scientific, NJ, US) having a cell constant of 1.02 cm^−1.
The deprotonation reactions of the ionic solutions of additives in water were monitored in a similar manner, and the conductivity plot is shown in FIG. 8.
1:1 v/v solutions of the various additives and distilled, deionised water were prepared in six dram glass vials and transferred to a fritted glass apparatus which acted as a reaction vessel. The fritted glass apparatus consisted of a long narrow glass tube leading to a fine glass frit having a diameter of approximately 4 cm. The other end of the glass frit was connected to a cylindrical glass tube which held the solution of the additive during contacting with the trigger gas. […]
A trigger gas chosen from CO2, air or nitrogen was bubbled through the solution via the glass frit at a flow rate of 110 ml min^−1 as measured by a J&W Scientific ADM 2000 Intelligent Flowmeter (CA, USA). For each conductivity measurement, the solution was transferred back to a six dram vial, cooled to 298 K and measured in triplicate. […]

Substance: N, N-(dimethylamino)ethanol [DMAE]
- % Additive Retained [1]: 98.0 ± 0.2% and 93.9 ± 2.1% and 91.7 ± 2.6% and 98.3 ± 0.4% and 73.5 ± 2.0%
- Amount of additive retained [1]: 73.5 ± 2.0% mol %
- rise in conductivity on CO2 bubbling [2]: largest rise in conductivity
